## Ab-14 light chain CDR variants: yeast mating affinities

Antigen: PDVDLGDISGINAS, a 14-residue peptide of the SARS-CoV-2 spike HR2 region.

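The parent was found by panning a naive human phage display library on the peptide. This is the validation round: designs drawn from the data on random variants, tested in the same kind of assay. Several design methods are mixed in this list. The assay is AlphaSeq: two haploid yeast populations carry antibody and antigen on their surface. After mating in shaken culture at 30 °C for 16 h, diploids were selected and their barcode pairs sequenced. The ratio of observed to expected reads was calibrated, replicate by replicate, on BCL2-family standards whose Kd was known from biolayer interferometry. There are six technical replicates.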

Each scFv is VH, the linker GGGGSGGGGSGGGGS, VL, as in the parent Ab-14, and differs from it in the CDRs of the light chain only.
VH: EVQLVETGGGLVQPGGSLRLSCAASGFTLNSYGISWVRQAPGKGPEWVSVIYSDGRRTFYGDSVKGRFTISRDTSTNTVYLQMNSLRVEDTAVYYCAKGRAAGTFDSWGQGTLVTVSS
VL: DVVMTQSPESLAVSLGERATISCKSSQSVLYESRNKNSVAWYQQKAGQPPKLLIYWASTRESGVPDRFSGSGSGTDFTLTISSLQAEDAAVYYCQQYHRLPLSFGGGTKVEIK

Each variant is given by its three light chain CDRs, as the data file delimits them; those of the parent are KSSQSVLYESRNKNSVA, WASTRES, QQYHRLPLS.
Numbers give log10(Kd / nM), so 0 is 1 nM and 3 is 1 µM. Smaller is tighter.
Replicates are averaged; those with no signal do not enter the mean.
A pair that was not seen in that replicate is written "nd"; this usually means weak binding, but a binder can also be missed.
The range of this assay differs from that of the first round, and the authors advise against merging the two.
Background: pairings of all light chain designs with three empty control strains gave a value in 4% of cases (median 2.64, 5th percentile 1.59). Values in that range, when seen in few replicates, are hard to tell from nonspecific mating.
The authors' rule: three or more of the six replicates give a measured affinity, fewer mean a poor binder.

| # | CDR-L1 | CDR-L2 | CDR-L3 | log10 Kd (nM) by replicate | mean, log10 nM |
|---|---|---|---|---|---|
| 1 | KIIDMSLVSMRAHNSIA | DNDMRNY | QQYDRLPLS | 0.38 0.27 0.29 -0.12 0.20 0.21 | 0.20 |
| 2 | KLMGSVLYESRWKNAVA | EASTRES | QQYHRLPLS | 0.94 0.73 0.92 0.59 1.07 0.98 | 0.87 |
| 3 | KLTMISGLEKVSKNNVA | EMETRMR | QQYNRLPLS | 0.23 0.19 0.37 0.41 -0.18 0.43 | 0.24 |
| 4 | KLRMSTLYESRNKNSVA | KASTRES | QQYHRLPLS | 0.42 0.02 0.37 0.16 0.24 0.41 | 0.27 |
| 5 | KSSQSILYEGRNKNSVA | FASTRES | QQYHRLPLS | 1.45 1.37 1.38 1.74 1.79 2.00 | 1.62 |
| 6 | KLASVTGTEKVHGNNVA | EMETREQ | QQYNRLPLA | 0.60 0.58 0.66 0.59 0.41 0.81 | 0.61 |
| 7 | KLPQSDLYESRNKNSVA | NASTRMS | QQYHRLPLS | -0.17 -0.41 -0.31 -0.39 -0.47 -0.19 | -0.32 |
| 8 | KLYQSQLYESRMKNSVA | NASTRES | QQYHRLPLS | 0.32 0.14 -0.19 0.08 0.17 0.15 | 0.11 |
| 9 | KSSQIVLYTSANKNSVA | KASTRES | QQYHRLPLS | 0.43 0.19 1.11 0.79 -0.06 0.79 | 0.54 |
| 10 | TLSGLMDMTSKNVNSVA | DLTTRGN | QQYHRLPLS | 0.17 0.02 -0.01 -0.05 0.01 0.23 | 0.06 |
| 11 | KLSQSMLYESRNKNSVA | NASTRMV | QQYHRLPLS | -0.25 -0.32 -0.29 -0.63 -0.49 -0.39 | -0.39 |
| 12 | KLSVSWLYESIEKNSVA | ERSTRED | QDYNRLPLS | 0.65 0.52 0.65 0.24 0.43 0.63 | 0.52 |
| 13 | IARQSWLYESRNKNSVA | GASTRES | QQYHRLPLI | 0.55 0.71 0.54 0.56 0.21 0.75 | 0.55 |
| 14 | KISQSVLYEHRNKNSVA | WASTRES | QQYHRLPLS | 0.78 0.91 0.65 0.66 0.69 0.80 | 0.75 |
| 15 | MISQLYNMGQFAINSVA | QASLRND | QQYDRLPLM | 1.30 1.40 1.16 1.27 1.36 1.25 | 1.29 |
| 16 | KLSMSHLYESRNKNSVA | EASTRES | QQYHRLPLS | -0.28 -0.38 -0.13 -0.75 0.14 -0.18 | -0.26 |
| 17 | NVHALDAISSEFQNSVA | DQECRDA | QQYFRLPLS | 0.97 0.91 0.93 1.19 0.79 0.90 | 0.95 |
| 18 | KLQQSVLYESTDKNSVA | WASTRES | QQYHRLPLS | 1.48 1.06 1.38 1.40 1.07 2.03 | 1.40 |
| 19 | KWSQGVMGESRNKNSVA | NASTRES | QQYHRLPLS | 0.23 0.09 0.16 0.22 0.39 0.61 | 0.28 |
| 20 | KVSISYLLESRNKNSVA | EAPTRES | QQYHRLPLS | nd nd nd nd nd nd | nd |
| 21 | KVSESFLYESRNKNAVA | GASTRES | QQYHRLTLS | nd nd nd nd nd nd | nd |

Further variants, results first:

| # | log10 Kd (nM) by replicate | mean, log10 nM | CDR-L1 | CDR-L2 | CDR-L3 |
|---|---|---|---|---|---|
| 22 | 0.44 0.40 0.30 0.25 0.26 0.32 | 0.33 | MMSYGWLYGSRNKRNVA | DHETRES | QQYDRLPLS |
| 23 | 0.14 0.20 -0.08 -0.02 0.24 0.14 | 0.10 | KLSQSMEYESRNSKSVA | NASTRVS | QQYHRLPLS |
| 24 | nd 2.13 1.78 1.43 2.27 1.57 | 1.84 | TIGAQLMYGMRNRSNVA | EVSERLN | QQYDRLPLM |
| 25 | nd 1.31 nd nd 2.27 1.62 | 1.73 | KSSVSVLYESCNKNSVA | WASTRES | QQYHRLPLS |
| 26 | 1.55 1.58 1.27 1.66 1.58 1.44 | 1.51 | SLHLYTNTEENNNNSIA | EKSYRAY | QQYAHLPLV |
| 27 | nd 1.34 nd nd nd nd | 1.34 | HISYSMQHLTKNKNSVA | NQQTRES | QQYHMLPLS |
| 28 | 0.39 0.43 0.42 0.42 0.43 0.32 | 0.40 | KISMLQRYESQAKNNIA | EMSRREN | QQYHRLPLS |
| 29 | 0.10 -0.15 -0.28 -0.46 -0.38 -0.02 | -0.20 | KISQSWLYEPRNSNSVA | NASTRLQ | QQYHRLPLS |
| 30 | 1.07 nd nd nd 2.21 nd | 1.64 | IVSQLMLWGMHVKNSIA | EAQTRVN | QQYDRLPLF |
| 31 | nd nd nd nd nd nd | nd | KFSQWVLYESRTKNSVA | GASTRES | QQYHRLPLS |
| 32 | 0.72 0.92 1.20 1.28 1.04 1.05 | 1.03 | NLNDSDMYASQMTDNIA | QDTQRNE | QQYAKLPLS |
| 33 | 1.74 nd nd nd nd nd | 1.74 | IVSQLMLWGMHVKNSIA | EAVTRVN | QQYERLPLF |
| 34 | 1.06 0.71 0.25 0.30 0.67 0.81 | 0.63 | KIMQSLNYETFNKNSVA | GQETRER | QSYHRLPLS |
| 35 | 0.20 0.24 0.10 0.14 0.08 0.13 | 0.15 | KLQQSQLYESRNKNSVA | NASTRCS | QQYHRLPLS |
| 36 | 0.41 0.35 0.40 0.23 0.45 0.54 | 0.40 | IISQSVLGEYHNKNNVA | QTSERGQ | QQYDRLPLS |
| 37 | 1.39 1.57 1.16 1.31 1.16 1.06 | 1.27 | TIGGTLMYGVRNRSNVA | EVSERLN | QQYDRLPLI |
| 38 | 1.72 0.74 1.16 0.74 2.26 1.17 | 1.30 | RIQQQMAGFERHAANIA | STAVRLW | QQYARLPFI |
| 39 | nd nd nd nd nd nd | nd | KSSQSVLRESNNKNSVA | WASTREY | QQYHGLPLS |
| 40 | 0.23 0.14 0.03 -0.32 -0.13 0.25 | 0.03 | KHSQSVLYEDRVKNSVA | DASQRES | QQYHRLPLS |
| 41 | 0.96 0.95 1.09 1.39 0.69 1.20 | 1.05 | TISQITSLFSQTINNVA | EVTTREE | QQYDRLPLS |
| 42 | 0.29 -0.05 -0.11 -0.21 -0.17 0.08 | -0.03 | KSPQSVDYESRNKNSVA | DASTRES | QQYHRLPLS |

The opening 6 entries, copied out:

CDR-L1,CDR-L2,CDR-L3,log10 Kd (nM) by replicate,"mean, log10 nM"
KIIDMSLVSMRAHNSIA,DNDMRNY,QQYDRLPLS,0.38 0.27 0.29 -0.12 0.20 0.21,0.20
KLMGSVLYESRWKNAVA,EASTRES,QQYHRLPLS,0.94 0.73 0.92 0.59 1.07 0.98,0.87
KLTMISGLEKVSKNNVA,EMETRMR,QQYNRLPLS,0.23 0.19 0.37 0.41 -0.18 0.43,0.24
KLRMSTLYESRNKNSVA,KASTRES,QQYHRLPLS,0.42 0.02 0.37 0.16 0.24 0.41,0.27
KSSQSILYEGRNKNSVA,FASTRES,QQYHRLPLS,1.45 1.37 1.38 1.74 1.79 2.00,1.62
KLASVTGTEKVHGNNVA,EMETREQ,QQYNRLPLA,0.60 0.58 0.66 0.59 0.41 0.81,0.61

Source: Li et al. 2023 (doi:10.1038/s41467-023-39022-2), MIT Lincoln Laboratory and A-Alpha Bio; data file from the FLAb repository.